# Antibody variant affinities, Ab-14 heavy chain, assay B

From the AlphaSeq antibody data of Li et al. 2023 (doi:10.1038/s41467-023-39022-2), copy in the FLAb collection.

Binding partner: SARS-CoV-2 spike HR2 peptide, sequence PDVDLGDISGINAS.

Each scFv is VH, three GGGGS repeats, VL, as in the parent Ab-14, and differs from it in the CDRs of the heavy chain only.
VH: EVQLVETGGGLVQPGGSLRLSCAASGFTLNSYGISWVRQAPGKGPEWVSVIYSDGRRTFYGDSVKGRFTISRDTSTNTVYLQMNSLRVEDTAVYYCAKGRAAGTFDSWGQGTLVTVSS
VL: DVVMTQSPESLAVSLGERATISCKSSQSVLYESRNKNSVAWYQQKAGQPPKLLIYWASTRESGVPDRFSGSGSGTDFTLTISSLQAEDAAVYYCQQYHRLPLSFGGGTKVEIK

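Phage display of a naive human antibody library on the peptide gave the parent. These sequences belong to a second round, designed from the earlier measurements on random variants of the parent. Their group label is 14H_GP_Gibbs (GP: Gaussian process model; Gibbs: Gibbs sampling; a sequence that several methods proposed may carry one label only). In AlphaSeq, yeast of one mating type display the scFv and yeast of the other type display the target. After mating in shaken culture at 30 °C for 16 h, diploids were selected and their barcode pairs sequenced. A regression on co-assayed BCL2-family reference pairs converts the normalised counts of each replicate to an apparent Kd. There are six technical replicates.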

Positions count from residue 1 of the parent VH; T28Q puts Q in place of T.
Values are log10 of the apparent Kd in nM; lower means stronger binding.
Averages over replicates are reported, and they cover detected replicates only.
"ND" means that the variant was in the library but no mating with the target was seen in that replicate; the authors take this as a sign of poor binding, and no number exists.
Of ten entries with the parent sequence, four were seen in most replicates (averages 0.34 to 2.37), three in one and three in none, so single entries are noisy.

| changes | log10 Kd, replicates | log10 Kd (nM), mean | empty controls |
|---|---|---|---|
| T28Q/S31E/G61Q/S107T | -0.25 -0.20 -0.74 -0.42 -0.95 -0.41 | -0.49 | 0 of 18 |
| T28Y/S31E/S63Q/R100K/A101T | ND ND ND ND 0.79 ND | 0.79 | 0 of 18 |
| G26K/T28S/N30E/R100W/A101T | ND ND ND ND 1.43 1.37 | 1.40 | 0 of 18 |
| T28E/S31T/S63Q/R100K/A101T | ND -0.45 0.44 ND ND ND | -0.01 | 0 of 18 |
| T28D/F59A/G61R/A101T | 0.24 0.22 0.58 0.00 0.18 0.43 | 0.27 | 0 of 18 |
| G26Y/T28S/G61A/A101E | 1.75 1.11 1.99 0.62 0.64 0.96 | 1.18 | 1 of 18 (2.48) |
| R100Q/A101T/S107R | 0.38 ND ND ND ND ND | 0.38 | 0 of 18 |
| T28S/G61V/A101L/S107T | ND 1.00 1.28 2.26 0.55 1.73 | 1.36 | 2 of 18 (1.91) |
| T28E/G61V/R100K/A101E | 0.65 0.53 0.83 0.42 0.26 0.81 | 0.59 | 0 of 18 |
| T28Q/G61A/S63N/R100Q/A101E | ND ND ND ND ND ND | ND | 0 of 18 |
| T28D/G61Q/S63K/R100Q/A101T/S107D | -0.12 -0.28 -0.46 -0.08 0.01 -0.17 | -0.18 | 0 of 18 |
| T28S/G61A/S63K/A101T/S107N | ND 1.47 ND 0.69 ND 0.88 | 1.01 | 0 of 18 |
| T28H/R56K/G61V/A101T | 2.12 ND ND ND 2.01 2.00 | 2.04 | 0 of 18 |
| G26Y/T28E/R100N/A101E/S107T | ND 0.42 ND ND ND ND | 0.42 | 0 of 18 |
| T28H/G61H/R100Q/A101E | 0.62 0.77 0.52 0.79 0.33 0.78 | 0.63 | 0 of 18 |
| T28E/S31M/G61V/A101Q/S107T | 1.00 1.34 1.13 1.09 1.58 1.55 | 1.28 | 1 of 18 (2.05) |
| T28D/G61D/R100K/S107V | 1.73 2.75 1.45 2.20 1.31 2.47 | 1.99 | 1 of 18 (1.75) |
| T28W/S31E/R56M/G61I | ND ND ND ND ND ND | ND | 0 of 18 |
| T28E/G61A/S63N/R100K/A101N | 0.40 0.57 0.06 -0.10 0.56 0.35 | 0.31 | 0 of 18 |
| G26M/T28D/R100K/A101N | 1.25 1.48 1.54 2.22 ND 1.80 | 1.66 | 0 of 18 |
| F27K/T28D/S63E/A101T | 2.23 1.21 -0.14 0.61 0.63 ND | 0.91 | 0 of 18 |
| T28S/S63R/R100Q/A101E | -0.01 0.04 0.09 -0.24 0.79 -0.59 | 0.01 | 0 of 18 |
| G26H/T28S/S31E/F59M/A101T | 0.03 0.44 0.49 0.32 0.21 0.53 | 0.34 | 1 of 18 (2.22) |
| T28E/S53A/G61Q/R100E | -0.23 -0.21 -0.64 -0.54 -0.47 -0.15 | -0.37 | 0 of 18 |
| T28D/R56K/R100K/S107L | 0.95 -0.22 0.53 0.79 0.01 0.38 | 0.41 | 0 of 18 |
| T28E/S31E/S63G/R100Q/S107K | ND ND ND ND ND ND | ND | 0 of 18 |
| T28Q/G61S/S63R/R100E/S107K | ND 0.77 ND ND ND 0.88 | 0.83 | 0 of 18 |
| T28N/G61A/S63A/A101L | 1.29 1.01 1.37 1.82 1.28 1.62 | 1.40 | 0 of 18 |
| T28S/S31T/G61K/R100E | 0.68 0.26 0.21 0.37 0.58 -0.02 | 0.35 | 1 of 18 (2.68) |
| T28D/F59M/G61L/R100Q | ND ND ND ND ND ND | ND | 0 of 18 |
| T28E/S63Q/R100I/A101T | 1.30 0.69 0.47 1.20 0.52 0.60 | 0.80 | 0 of 18 |
| S53A/R100N/S107D | 0.20 0.21 -0.41 -0.68 -0.12 0.51 | -0.05 | 0 of 18 |
| R56K/R100Q/S107V | ND ND ND ND ND ND | ND | 0 of 18 |
| G26K/G61S/R100K/A101T | 1.26 0.56 0.28 0.98 0.58 2.54 | 1.03 | 0 of 18 |
| T28E/R100Q/S107A | ND ND ND ND ND 1.59 | 1.59 | 0 of 18 |
| G26Y/S31E/A101H/S107T | 2.65 ND ND 1.96 2.35 ND | 2.32 | 1 of 18 (2.49) |
| T28S/G61A/R100S/A101E/S107N | -0.36 -0.49 -0.24 -0.40 -0.41 -0.49 | -0.40 | 0 of 18 |
| G26M/T28S/R100Q/A101I | ND ND ND ND ND ND | ND | 0 of 18 |
| T28S/S31G/F59A | ND ND 0.90 -0.05 0.61 -0.27 | 0.29 | 0 of 18 |
| T28D/F59V/R100K/A101T | -0.11 -0.16 -0.46 -0.19 -0.64 -0.17 | -0.29 | 0 of 18 |
| T28S/S31N/A101T/D106F | ND ND ND ND ND ND | ND | 0 of 18 |
| T28Q/G61S/S63Q/R100Q | 0.77 0.62 0.69 0.32 0.47 0.35 | 0.54 | 0 of 18 |
| T28S/S31E/F59M/G61I | 0.05 -0.12 0.23 -0.05 -0.16 0.02 | -0.01 | 1 of 18 (1.87) |
| T28S/S31E/A101Q/D106E | 0.35 0.41 -0.25 -0.10 0.07 0.57 | 0.17 | 1 of 18 (3.63) |
| T28E/S53A/S63R/S107V | ND 2.09 ND 1.69 ND ND | 1.89 | 0 of 18 |
| T28S/S31T/G61K/R100K/A101T | 1.60 0.29 ND 0.80 1.03 1.26 | 1.00 | 0 of 18 |
| T28D/G61S/A101H | 1.67 ND 1.45 1.81 ND 1.47 | 1.60 | 0 of 18 |
| F27K/T28S/G61S/A101Q | 0.63 1.33 ND 1.68 1.13 1.23 | 1.20 | 0 of 18 |
| T28E/S31T/G61H/R100K/A101T | ND ND ND ND ND ND | ND | 0 of 18 |
| G26S/A101E/S107T | 2.18 0.87 ND ND ND 2.28 | 1.78 | 0 of 18 |

The last 8 entries again:

| changes | log10 Kd, replicates | log10 Kd (nM), mean | empty controls |
|---|---|---|---|
| T28S/S31E/F59M/G61I | 0.05 -0.12 0.23 -0.05 -0.16 0.02 | -0.01 | 1 of 18 (1.87) |
| T28S/S31E/A101Q/D106E | 0.35 0.41 -0.25 -0.10 0.07 0.57 | 0.17 | 1 of 18 (3.63) |
| T28E/S53A/S63R/S107V | ND 2.09 ND 1.69 ND ND | 1.89 | 0 of 18 |
| T28S/S31T/G61K/R100K/A101T | 1.60 0.29 ND 0.80 1.03 1.26 | 1.00 | 0 of 18 |
| T28D/G61S/A101H | 1.67 ND 1.45 1.81 ND 1.47 | 1.60 | 0 of 18 |
| F27K/T28S/G61S/A101Q | 0.63 1.33 ND 1.68 1.13 1.23 | 1.20 | 0 of 18 |
| T28E/S31T/G61H/R100K/A101T | ND ND ND ND ND ND | ND | 0 of 18 |
| G26S/A101E/S107T | 2.18 0.87 ND ND ND 2.28 | 1.78 | 0 of 18 |

Empty control strains, which show no peptide, gave a signal in 1% of pairings with all heavy chain designs; the median was 2.08 and 95% of these signals were weaker than 0.84. No background was subtracted. The control count says in how many pairings with the empty strains this scFv gave a signal, with their mean in brackets.
In the paper, a design with two or fewer of six values counts as a poor binder.
A sequence measured in both rounds can read differently, since the two assays cover different ranges.